What is called GI50 is the concentration giving 50% growth inhibition.

The results in this text go back to patent US8257931B2 (President and Fellows of Harvard College, priority 2005, dated 2012).

The subject of this test is A549 lung cancer cells. Put plainly: A549 proliferation, sulforhodamine B (SRB) assay. The class given is cell-based, human. Particulars: read-out: GI50 (SRB μM), Table 1, triplicate. (In general: The SRB assay estimates cell density from bound dye.)

Structures are written as SMILES.

Regarding `O=C(O)/C(Cc1ccccc1)=N/Nc1nnc(-c2ccccc2)s1`, the concentration for 50% growth inhibition (GI50) was 9 µM.
